Measurements: ChEMBL document CHEMBL1128269, “Synthesis and biological evaluation of NK1 antagonists derived from L-tryptophan” (J Med Chem, 1995)

The chains behind the UniProt entries cited, without tags or fusion partners.
UniProt P25103, whole entry Q165A: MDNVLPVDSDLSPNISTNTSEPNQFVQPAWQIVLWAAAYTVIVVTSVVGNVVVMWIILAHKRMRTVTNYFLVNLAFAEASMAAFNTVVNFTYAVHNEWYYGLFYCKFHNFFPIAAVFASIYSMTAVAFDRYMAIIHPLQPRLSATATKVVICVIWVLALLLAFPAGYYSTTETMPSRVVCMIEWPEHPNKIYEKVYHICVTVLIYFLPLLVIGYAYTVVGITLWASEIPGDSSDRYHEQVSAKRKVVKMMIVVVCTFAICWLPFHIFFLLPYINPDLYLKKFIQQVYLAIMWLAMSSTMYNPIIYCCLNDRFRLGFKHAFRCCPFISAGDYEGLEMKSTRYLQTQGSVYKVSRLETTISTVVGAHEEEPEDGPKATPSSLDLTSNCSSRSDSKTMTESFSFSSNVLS
UniProt P25103, whole entry: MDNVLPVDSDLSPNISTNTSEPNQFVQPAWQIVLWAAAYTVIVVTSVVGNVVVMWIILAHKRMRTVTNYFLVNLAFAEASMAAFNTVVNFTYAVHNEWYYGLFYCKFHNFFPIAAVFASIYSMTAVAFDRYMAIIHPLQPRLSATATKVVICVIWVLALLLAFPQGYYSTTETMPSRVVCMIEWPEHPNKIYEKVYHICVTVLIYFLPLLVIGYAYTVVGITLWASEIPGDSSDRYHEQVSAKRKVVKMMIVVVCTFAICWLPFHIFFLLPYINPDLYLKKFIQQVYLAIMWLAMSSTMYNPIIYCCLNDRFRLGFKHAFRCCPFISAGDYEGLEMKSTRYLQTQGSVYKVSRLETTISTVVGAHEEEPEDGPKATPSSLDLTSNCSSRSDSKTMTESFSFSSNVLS

Legend:
Assay type in all cases: cell-based
Substance-P receptor [1] = molecular target: Substance-P receptor (Homo sapiens, UniProt P25103, Q165A); assay: Binding affinity against Gln165Ala mutant type human Tachykinin receptor 1 expressed in CHO cells was measured by its ability to displace [125I]- Tyr-8 substance P.
Substance-P receptor [2] = molecular target: T1, Substance-P receptor (Homo sapiens, UniProt P25103); assay: Binding affinity against human Tachykinin receptor 1 expressed in CHO cells was measured by its ability to displace [125I]- Tyr-8 substance P.
Substance-P receptor [3] = molecular target: T1, Substance-P receptor; assay: Binding affinity against wild type human Tachykinin receptor 1 expressed in CHO cells was measured by its ability to displace [125I]- Tyr-8 substance P.
Outline: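 Wild-type and Gln165Ala mutant human NK1 receptors expressed in CHO cells were tested in the same binding conditions. Ligand displacement of [125I]Tyr8-substance P was compared between the two receptors to give the affinity ratio.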

IC50 (Substance-P receptor [1])	IC50 (Substance-P receptor [2])	IC50 (Substance-P receptor [3])	Compound
10 nM	3.1 nM	2.2 nM	CC(=O)N[C@@H](Cc1c[nH]c2ccccc12)C(=O)CCc1cc(C(F)(F)F)cc(C(F)(F)F)c1
–	5 nM	–	CN(C)CC(=O)N[C@@H](Cc1c[nH]c2ccccc12)C(=O)CCc1cc(C(F)(F)F)cc(C(F)(F)F)c1
–	1.8 nM	–	CN(C)CCC(=O)N[C@@H](Cc1c[nH]c2ccccc12)C(=O)CCc1cc(C(F)(F)F)cc(C(F)(F)F)c1
